# scFv variants of Ab-95 (light chain) against a SARS-CoV-2 spike peptide

The target is the same throughout: PDVDLGDISGINAS, from the HR2 region of SARS-CoV-2 spike.

Parent: Ab-95, a human scFv built as VH, a 15-residue (Gly4Ser)3 linker, VL. Only the CDRs of the light chain vary.
VH: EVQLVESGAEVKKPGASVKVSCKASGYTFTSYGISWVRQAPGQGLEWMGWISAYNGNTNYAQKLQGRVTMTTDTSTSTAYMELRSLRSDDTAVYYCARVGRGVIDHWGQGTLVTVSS
VL: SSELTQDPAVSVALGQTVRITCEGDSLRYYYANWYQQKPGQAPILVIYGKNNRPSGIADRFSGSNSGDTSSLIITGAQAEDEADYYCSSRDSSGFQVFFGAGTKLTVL

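The starting antibody came from a phage panning campaign against this peptide. Library AAYL52 holds single substitutions and randomly drawn double and triple substitutions in the CDRs. In AlphaSeq, yeast of one mating type display the scFv and yeast of the other type display the target. Binding brings cells together so that they mate, and sequencing counts the barcode pairs among the diploids. A regression on co-assayed BCL2-family reference pairs converts the normalised counts of each replicate to an apparent Kd. Each pool was mated in three replicate cultures.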

Each variant is given by its three light chain CDRs, as the data file delimits them; those of the parent are EGDSLRYYYAN, GKNNRPS, SSRDSSGFQVF. Numbers give log10(Kd / nM), so 0 is 1 nM and 3 is 1 µM. Smaller is tighter. An entry "n.d." has no value in the source: the pair was not observed among the diploids in that replicate. This suggests poor binding but is not conclusive. For reference, the parent read 2.31 as the reference entry and 2.25 as a member of this library. Three control strains display no target. For library AAYL52, 28% of the pairings with them gave a signal, with a median of 3.91 and one signal in twenty below 2.90, so weak values seen in few replicates may be background. Also given: how often the same scFv was detected with the empty control strains, with their mean in brackets.

CDR-L1 | CDR-L2 | CDR-L3 | log10 Kd, replicates | empty controls
EGDSLRYYYAG | GKNNRPS | SSRQNSGFQVF | 4.34 / 4.50 / n.d. | 3/9 (4.00)
EGDSLRYYYAN | GKNNRPR | SSRHSSFFQVF | 3.01 / 2.86 / 4.35 | 0/9
EGDSLWYYYAN | GKNRRPS | SSRDSSVFQVF | n.d. / n.d. / n.d. | 2/9 (4.61)
AGDSNRYYYAN | GKNNRPS | SSRDSSEFQVF | 3.31 / n.d. / 4.37 | 4/9 (3.88)
EGDSLRYYYAN | SKNNRPS | YSRNSSGFQVF | n.d. / 3.01 / 3.61 | 3/9 (3.85)
EGDSLRYYHAN | GKNNRPS | SSMDSSGFQAF | 3.30 / 3.25 / 2.49 | 3/9 (4.14)
EGDSLRYYYAN | GSNNRES | SSRDVSGFQVF | 3.96 / n.d. / n.d. | 2/9 (3.50)
EGSSLRYYYAN | GKNGRPS | CSRDSSGFQVF | 2.87 / 3.43 / 2.86 | 2/9 (4.09)
EGDSLRYYYAN | GKNNRPS | SSRDSSCFQMF | n.d. / n.d. / 2.41 | 0/9
EGRSLTYYYAN | GKNNRPS | SSRDSSGFCVF | n.d. / n.d. / n.d. | 1/9 (4.17)
EPDSLRYYYAN | GKNNRPS | SSRDSSGFQVF | 4.34 / n.d. / n.d. | 2/9 (4.07)
EGDSLMYYYAN | GKNNRPS | SSRDSSGFLVF | 3.61 / n.d. / 3.13 | 1/9 (4.08)
ELDSLRYYYAN | GKNNRPS | SSRDSSGQVVF | 3.42 / 3.48 / 3.45 | 7/9 (3.69)
EGDGLRYYYAV | GKNNRPS | SSRDDSGFQVF | 3.70 / n.d. / 4.40 | 5/9 (4.14)
EGISLRYYYAN | GKNNRPS | SSRDSSGFGVK | 3.09 / 3.01 / 2.55 | 5/9 (3.80)
EGILLRYYYAN | GKNNEPS | SSRDSSGFQVF | n.d. / 3.62 / n.d. | 5/9 (3.36)
EFDSLRYYYAN | GMNNRPS | SSRDSSGQQVF | 2.74 / 3.34 / 2.80 | 3/9 (4.43)
EGDWLRYYYAN | GKNNRPS | SSRDTSGFQFF | n.d. / n.d. / n.d. | 2/9 (3.85)
YGDSLRYYYVN | GCNNRPS | SSRDSSGFQVF | 3.91 / n.d. / n.d. | 3/9 (4.20)
EGDSLRYYYAN | GWNNRPS | SSRDSSGFQVM | n.d. / n.d. / 4.28 | 2/9 (3.79)
EGDSLRYYYAN | GKNNQPS | SSRDSSGFQSF | n.d. / 5.09 / n.d. | 1/9 (3.25)
EGDELRYYYAN | PKTNRPS | SSRDSSGFQVF | 3.72 / 2.91 / 3.00 | 3/9 (3.93)
EGDSLREYYAN | GNNNVPS | SSRDSSGFQVF | 3.09 / 2.97 / 2.06 | 1/9 (3.99)
EGDSLRYYYAN | GKNNRPS | SSRDSSGYQVI | 4.17 / n.d. / n.d. | 1/9 (4.23)
EGDSLRDYYAN | GKNNRPS | SSRDSLGFMVF | 1.66 / 1.51 / 1.05 | 4/9 (4.23)
EGDSLRYYYAN | GKNNRPS | SSRDPSGFQHR | 2.59 / 2.86 / 2.55 | 2/9 (3.42)
EGDSLRYYYAN | GKNCRPS | PSRDSSNFQVF | n.d. / n.d. / n.d. | 0/9
EGDSLRYYYAN | GKNNRPS | SMRDSSGFLVF | n.d. / n.d. / n.d. | 1/9 (3.83)
EGDSLTYYYAN | GKNNRPS | SSRDSSGGQVP | 2.46 / 2.33 / 2.00 | 2/9 (3.89)
EGCWLRYYYAN | GWNNRPS | SSRDSSGFQVF | n.d. / 4.87 / n.d. | 2/9 (3.83)
EGDMLRYYYAN | GKNNRPS | SSRDRSGFQVF | 4.40 / 2.79 / n.d. | 2/9 (4.63)
EGDSLRYYYAN | GKNNDPS | SLRDVSGFQVF | n.d. / n.d. / n.d. | 1/9 (3.67)
EGDSLRYYYAN | GWTNKPS | SSRDSSGFQVF | n.d. / n.d. / n.d. | 0/9
EGISLRYLYAN | GKNNRPS | SSRDSVGFQVF | n.d. / n.d. / 3.74 | 2/9 (3.87)
EYDSLRYYYAN | GKNNRPS | SSRDSSPFQVF | 2.99 / 4.93 / 3.99 | 1/9 (3.29)
EGRSLRYYYAN | GKNNRPS | SSRDNSGFQVH | 2.51 / 2.55 / 2.32 | 3/9 (4.53)
VGDSLRYYYAN | GKSNRPS | SSRASSGFQVF | 4.72 / 3.07 / 3.48 | 4/9 (3.94)
EGDSLRYYYAN | GKNNRPS | DSRDSGGFKVF | n.d. / n.d. / n.d. | 1/9 (3.84)
EGDSLRYNYYN | GKNNRPS | TSRDSSGFQVF | 3.53 / 2.78 / 3.37 | 5/9 (3.72)
EGDSLRQGYAN | GKNNNPS | SSRDSSGFQVF | 1.77 / 1.95 / 1.84 | 1/9 (5.42)
EGDSLRYYYAI | GKNNRPS | SSRDSSPKQVF | 5.31 / n.d. / n.d. | 1/9 (4.45)
EGDSLRYYYAP | GKNNRPS | SSTDSSGFQVF | 3.83 / n.d. / 4.37 | 4/9 (3.96)
EWDSLRYPYAN | GKNNRPS | SSRDSSGFQVF | 3.04 / 3.06 / 2.45 | 1/9 (3.73)
EGDSLRYYYAN | FKNNWPS | SSRDSSGFQVL | 3.44 / 4.75 / n.d. | 6/9 (3.66)
EGDSLRYNYAN | GKTNRPS | SSRDSSEFQVF | 1.59 / 1.66 / 1.65 | 1/9 (3.79)
EGDSLRYYYAN | GKYNRPS | SSRDSSGVWVF | n.d. / 3.32 / n.d. | 3/9 (3.73)
NGDSLRYYYAD | GKLNRPS | SSRDSSGFQVF | 4.07 / n.d. / n.d. | 1/9 (3.21)
EGDSLRYYYAN | GKNNRPS | SARDSLGFVVF | n.d. / n.d. / n.d. | 0/9
EGDSLWYYYAN | GKNNCPS | SSRDSSGFPVF | 4.50 / n.d. / n.d. | 0/9

A selection of 6 entries from above:

CDR-L1 | CDR-L2 | CDR-L3 | log10 Kd, replicates | empty controls
EGDSLRYYYAN | GSNNRES | SSRDVSGFQVF | 3.96 / n.d. / n.d. | 2/9 (3.50)
EGDSLREYYAN | GNNNVPS | SSRDSSGFQVF | 3.09 / 2.97 / 2.06 | 1/9 (3.99)
EGRSLTYYYAN | GKNNRPS | SSRDSSGFCVF | n.d. / n.d. / n.d. | 1/9 (4.17)
NGDSLRYYYAD | GKLNRPS | SSRDSSGFQVF | 4.07 / n.d. / n.d. | 1/9 (3.21)
EGDSLRYNYAN | GKTNRPS | SSRDSSEFQVF | 1.59 / 1.66 / 1.65 | 1/9 (3.79)
YGDSLRYYYVN | GCNNRPS | SSRDSSGFQVF | 3.91 / n.d. / n.d. | 3/9 (4.20)

The measurements come from Engelhart et al. 2022 (doi:10.1038/s41597-022-01779-4) through the FLAb antibody collection.